# Test results as given in PubChem BioAssay AID686949 (The Scripps Research Institute Molecular Screening Center, 2013).
# Protein sequences, listed by entry. Tags and fused reporters are not part of them. Lines headed by an entry give the natural chain unless they say otherwise; changes in a name come on top.
# UniProt P49862: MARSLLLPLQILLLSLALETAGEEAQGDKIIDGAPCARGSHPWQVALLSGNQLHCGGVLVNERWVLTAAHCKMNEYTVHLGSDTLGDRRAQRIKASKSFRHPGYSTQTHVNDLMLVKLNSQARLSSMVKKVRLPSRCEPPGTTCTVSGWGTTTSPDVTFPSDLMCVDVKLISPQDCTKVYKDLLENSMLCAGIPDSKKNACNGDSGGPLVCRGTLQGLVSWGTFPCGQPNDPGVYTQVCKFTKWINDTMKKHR
# Only a part is listed here, and it is no random draw. Activity calls are given as the source filed them.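 Rule for the calls: active = activation, as change over the incubation, above the mean of all tested compounds plus 3 SD (cut at about 13% in these data); inactive = the rest.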
# Target: Kallikrein-7 (Homo sapiens) (UniProt P49862)
# Assay: proKLK7 zymogen activators, confirmation, biochemical, fluorescence intensity, triplicate (AID 686949)
# Conditions: purified proKLK7, EDANS-DABCYL substrate fluorescence; at 7 µM; stronger effect = higher value; scaled: vehicle 0, mature enzyme 100
row,SMILES,activation
1,Nc1cccc2ccc([As](=O)(O)O)cc12,active: 18.1%
